Laboratory results reported in patent US6355473B1, “Yeast cells having mutations in stp22 and uses therefor” (Cadus Pharmaceutical Corp., priority 1998, dated 2002).

By UniProt entry, the sequences of proteins in these tests, tags left out. Where a name states a change or a piece, a line headed by the entry shows the natural chain unless it says otherwise.
UniProt P32745: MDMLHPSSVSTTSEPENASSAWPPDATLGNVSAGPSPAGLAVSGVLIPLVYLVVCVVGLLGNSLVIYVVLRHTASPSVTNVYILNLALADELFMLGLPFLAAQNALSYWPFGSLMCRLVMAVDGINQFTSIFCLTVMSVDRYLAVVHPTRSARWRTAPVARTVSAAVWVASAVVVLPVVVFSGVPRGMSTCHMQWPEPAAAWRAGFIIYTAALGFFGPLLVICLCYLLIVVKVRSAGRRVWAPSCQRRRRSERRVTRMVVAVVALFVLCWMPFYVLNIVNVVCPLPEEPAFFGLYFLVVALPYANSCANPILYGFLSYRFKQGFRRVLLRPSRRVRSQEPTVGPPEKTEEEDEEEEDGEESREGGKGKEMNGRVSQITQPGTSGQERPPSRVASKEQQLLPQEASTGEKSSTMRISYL

Target: T1, human somatostatin receptor 3 (hSSTR3) (Homo sapiens, UniProt P32745)
T1 construct: expressed in transfected cells; host or cells: Saccharomyces cerevisiae CY9438 (wild type) and CY12201 (stp22), co-expressing Gpa1A345T with five C-terminal residues of human Gαi2
Test: FUS1-lacZ β-galactosidase induction assay in yeast expressing αF-hSSTR3
Type: cell-based
Conditions: stp22 vs wild type

Somatostatin-14
decrease of EC50 value, stp22 versus wild type: 50% | increase in the levels of FUS1-lacZ induction, stp22 versus wild type: two-fold
